The record followed here is publication PMC13184244, “Nicotine biosynthesis is completed by cryptic activating glucosylation” (Nature Communications, 2026).

Amino acid sequences for entries named in this document (tags omitted). Residues count along the entry.
UniProt P52579, 6-310 limits assumed: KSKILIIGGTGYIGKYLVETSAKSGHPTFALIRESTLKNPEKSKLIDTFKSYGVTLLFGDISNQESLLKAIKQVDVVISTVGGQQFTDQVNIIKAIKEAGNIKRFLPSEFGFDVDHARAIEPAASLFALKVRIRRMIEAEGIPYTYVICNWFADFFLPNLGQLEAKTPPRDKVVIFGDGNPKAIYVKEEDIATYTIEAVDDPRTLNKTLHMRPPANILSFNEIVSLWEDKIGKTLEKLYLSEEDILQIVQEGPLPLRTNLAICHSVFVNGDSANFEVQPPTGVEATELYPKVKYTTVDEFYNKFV

Structures are written as SMILES.

For the test, the target named is NaGR (A622) (Nicotiana tabacum, UniProt P52579). The conditions noted are these: ternary complex with nicotinic acid N-glucoside; HEPES pH 7.5.

Consider `NC(=O)c1ccc[n+]([C@@H]2O[C@H](COP(=O)(O)OP(=O)(O)OC[C@H]3O[C@@H](n4cnc5c(N)ncnc54)[C@H](OP(=O)(O)O)[C@@H]3O)[C@@H](O)[C@H]2O)c1` [NADP+], for which the “X-ray crystallography, co-crystallisation, 1.3 Å” value is “cofactor NADP^+ bound between the Rossmann fold and the substrate binding domain”.
